Experimental data reported in ChEMBL document CHEMBL1148291, “Prediction of human volume of distribution values for neutral and basic drugs. 2. Extended data set and leave-class-out statistics” (J Med Chem, 2004).

Assay: Ionization constant (pKa)
Format: physicochemical

Q: For `COc1cc(Cc2cnc(N)nc2N)cc(OC)c1OC` [TRIMETHOPRIM], which pKa is on record?
A: The pKa was 7.26.
